This passage reports IC50 results from paper PMC6010085, “Inhibition of protein tyrosine phosphatase (PTP1B) and α-glucosidase by geranylated flavonoids from Paulownia tomentosa” (Journal of Enzyme Inhibition and Medicinal Chemistry, 2017).

The test deals with T1, recombinant human protein tyrosine phosphate 1B (PTP1B, EC 3. 1. 3. 48) (Homo sapiens, UniProt P18031).
T1 sequence (P18031 1-435): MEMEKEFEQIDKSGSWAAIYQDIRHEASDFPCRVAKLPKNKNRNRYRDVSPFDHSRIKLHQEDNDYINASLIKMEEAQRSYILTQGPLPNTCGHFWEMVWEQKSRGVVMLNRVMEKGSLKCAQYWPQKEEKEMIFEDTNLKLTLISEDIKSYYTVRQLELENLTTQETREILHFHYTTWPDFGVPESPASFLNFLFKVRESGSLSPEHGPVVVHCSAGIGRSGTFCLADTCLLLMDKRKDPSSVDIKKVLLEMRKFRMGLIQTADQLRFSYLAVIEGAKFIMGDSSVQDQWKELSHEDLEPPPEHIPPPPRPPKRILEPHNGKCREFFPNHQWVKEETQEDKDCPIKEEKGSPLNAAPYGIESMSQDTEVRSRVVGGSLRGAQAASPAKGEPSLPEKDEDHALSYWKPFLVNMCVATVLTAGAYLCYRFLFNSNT
Nature of the test: biochemical. Here is the method: The PTP1B inhibitory assay was carried out using a slight modification to literature reported method. p-nitrophenyl phosphate (pNPP) was used as a substrate for the measurement of enzyme activity. Buffer solution consisted of 25 mM Tris–HCl (pH 7.5), 2 mM β-mercaptoethanol, 1 mM (ethylenediaminetetraacetic acid) EDTA, and 1 mM dithiothreitol (DTT). The assay was performed by adding 10 μL test compound solution to 20 μL of enzyme (1 μg/ml), and then mixing with 40 μL of 4 mM pNPP in 130 μL of the given buffer using 96 well plate at 37 °C for 10 min. […] Lineweaver–Burk and Dixon plots methods were used to determine kinetic parameters. […]
Lineweaver–Burk plots were used for the analysis of enzyme’s inhibitory kinetics, caused by the tested bioactive compounds, and its comparison was performed with the data collected in the absence of inhibitors. Steady-state rates were determined at different inhibitor concentrations and at changing concentrations of substrate, then enzyme inhibition mechanism and related kinetic parameters were determined. […]
To determine enzyme inhibition parameters, an experiment was performed having substrate concentrations range (pNPP; 0.4–1.6 mM, pNPG; 0.075–0.3 mM), and different concentrations of tested compound, as indicated. […] Kik and Kiv rate constants were calculated according to Equations (4) and (5) proposed by Yang’s method. […]

Structures are written as SMILES. Some results are limits rather than exact numbers.

Take `OCC(CO)N[C@H]1C[C@](O)(CO)[C@@H](O)[C@H](O)[C@H]1O` [Voglibose, reference compound]: the IC50 (usually the concentration needed to halve the response being measured) is over 200 µM.
